Reference: US10864212B2, “Compositions and methods for treating retinal degradation” (University of Kentucky Research Foundation, priority 2013, dated 2020)

Chains of the proteins cited; added tags and fusions are not shown. Lines headed by an entry give the natural chain unless they say otherwise; changes in a name come on top.
UniProt Q99572: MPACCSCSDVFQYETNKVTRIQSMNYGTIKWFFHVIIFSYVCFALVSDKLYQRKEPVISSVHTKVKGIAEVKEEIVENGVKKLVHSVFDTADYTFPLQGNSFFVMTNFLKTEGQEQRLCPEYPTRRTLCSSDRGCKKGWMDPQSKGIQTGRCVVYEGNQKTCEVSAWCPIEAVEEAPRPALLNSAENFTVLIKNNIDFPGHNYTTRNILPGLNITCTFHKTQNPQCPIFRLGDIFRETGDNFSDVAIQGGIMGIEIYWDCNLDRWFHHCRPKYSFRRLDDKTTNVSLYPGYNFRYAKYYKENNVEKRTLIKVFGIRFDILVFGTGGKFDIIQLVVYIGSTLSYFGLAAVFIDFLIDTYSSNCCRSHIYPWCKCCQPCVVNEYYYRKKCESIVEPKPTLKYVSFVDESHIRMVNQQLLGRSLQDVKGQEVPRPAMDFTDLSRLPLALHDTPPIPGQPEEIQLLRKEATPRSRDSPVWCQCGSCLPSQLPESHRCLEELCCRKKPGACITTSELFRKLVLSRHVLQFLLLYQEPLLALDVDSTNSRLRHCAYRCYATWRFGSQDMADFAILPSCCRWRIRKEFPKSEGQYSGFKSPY

Target: P2X7 receptor (Homo sapiens, UniProt Q99572)
Test: ATP-induced cell permeability to Yo-Pro1 in PMA-differentiated THP-1 cells (P2X7 receptor assay)
Type: cell-based
Parameters: THP-1 cells differentiated into macrophages by PMA allowed entry of the large fluorescent dye Yo-Pro 1; endogenous in cells; host or cells: THP-1 cells differentiated into macrophages by PMA
Details: THP-1 cells differentiated into macrophages by PMA; FIG. 17
From the text: FIG. 17 provides the results of the fluorescence measurement in relative fluorescence units (RFU, y-axis).
To prepare FIG. 17, THP-1 cells differentiated into macrophages by PMA allowed entry of the large fluorescent dye Yo-Pro 1, in an assay for P2X7 receptor activity. […] Indeed, FIG. 17 provides the results of the fluorescence measurement in relative fluorescence units (RFU, y-axis).

**Q.** `Cc1cn([C@H]2C=C[C@@H](CO)O2)c(=O)[nH]c1=O` [d4T, 2′3′ dideoxythymidine] was tested. Which “Yo-Pro entry induced by ATP (RFU)” value did it give?
**A.** dose-dependently reduced Yo-Pro entry induced by ATP
